# Literature values in publication PMC11984388, “A brain-accessible peptide modulates stroke inflammatory response and neurotoxicity by targeting BDNF-receptor TrkB-T1 specific interactome” (Theranostics, 2025).
# Conditions: phase 3 clinical trial for acute ischemic stroke; cited from earlier work
substance,measurement,value
nerinetide,Plasma half-life,below 20 min
